This is a selection; strong and weak results do not stand in their true shares. Inconclusive results are not listed. The source made the active and inactive calls. Calls follow the shape of the dose curve; as a rule, active = well fitted inhibition curve with a large enough effect; inconclusive = small, poorly fitted or top-dose-only effect, or another doubt; inactive = no such curve, though single readings can be large or run the other way.
target: Polyunsaturated fatty acid lipoxygenase ALOX12 (Homo sapiens) (UniProt P18054); experiment: Primary qHTS assay for inhibitors of human arachidonate 12S-lipoxygenase (ALOX12): Round 2; details: purified 12hLO, xylenol orange hydroperoxide absorbance; series mostly up to 108 µM; activity change, negative = inhibition: at the top concentration
From the text: Assay Provider: Theodore R. Holman Ph.D. University of California, Santa Cruz, California Human lipoxygenase 12hLO is a member of the closely related lipoxygenase family of enzymes which catalyze the site-specific oxidation of arachidonic acid to various hormone precursor molecules and as such is a candidate for drug development in a variety of disease areas, such as cancer and inflammation. Inhibition of 12hLO activity was screened by utilizing arachidonic acid as a substrate. The extent of hydroperoxide product formation was measured by a secondary chromogenic reaction in which xylenol orange (XO, Sigma-Aldrich, cat. number 39,818-7) reacts with the ferric ions produced from the reaction between the hydroperoxide and ferrous ions. The Fe (III)-XO complex is characterized with red-shifted absorbance at 560 nm. A purified preparation of human 12hLO was supplied by Dr. Holman laboratory, University of California, Santa Cruz.
PROTOCOL TABLE SEQUENCE No. (e.g., 1, 2, 3, etc.); […] (e.g., Cells, Incubation, Reagent, etc.); VALUE; DESCRIPTION 1; Enzyme; 3 uL; 150 nM 12hLO enzyme solution dispensed in 1536-well Greiner black, clear bottom plates. 2; Compound; 23 nL; compounds and controls were added. 3; Incubate; 15 min; room temperature. 4; Substrate; 1 uL; 40 uM arachidonic acid (final concentration). 5; Incubate; 30 min; room temperature. 6; Reagent; 4 uL; Fe-XO solution was added to each well. 7; Incubation; 30 min; room temperature 8; Detector; absorbance; Read 1 at 405 nm absorbance using ViewLux (Perkin-Elmer) CCD imager. 9; Detector; absorbance; Read 2 at 573 nm absorbance using ViewLux (Perkin-Elmer) CCD imager. NOTES (numbers refer to sequence above) 1; 150 nM 12hLO (final concentration) in buffer solution (25 mM Hepes, 0.01% Triton X-100, pH 7.0) was dispensed in columns 1, 2, 5-48. Column 1 is neutral (100% activity). Buffer only was dispensed in columns 3 and 4 as no enzyme negative controls. The plates were covered with metal lids with gas-exchange holes. 2; Compounds were pin transferred via a Kalypsys Pin Tool (Wako USA) in column 5-48. Control compound was transferred in column 2, titration of nordihydroguaiaretic acid (NDGA, Sigma-Aldrich, N5023) with top concentration of 20 mM in DMSO then 1:3 dilution in duplicate. Dilution factor of 23 nL into 4 uL final assay volume. 3; Covered assay plates were incubated for 15 min at room temperature. 4; Substrate was added to start the reaction; 40 uM arachidonic acid (Sigma-Aldrich, St. Louis, MO) was dispensed throughout the plate. 6; Chromogenic detection reagent solution (divalent iron/xylenol orange, Fe-XO) was added to each well: 200 uM xylenol orange, 300 uM ferrous ammonium sulfate prepared freshly in 50 mM sulfuric acid. 8, 9; Two absorbance readouts were obtained at 405 nm and at 573 nm using a ViewLux high-throughput CCD plate imager (Perkin-Elmer). The 573 to 405 (Read 2 / Read 1) absorbance ratio was used to compute reaction progress.
% is scaled to controls: 0 for no effect and ±100 for the full control effect; potency is read from the fitted curve at half-maximal effect.

By UniProt entry, the sequences of proteins in these tests, tags left out.
UniProt P18054, whole entry: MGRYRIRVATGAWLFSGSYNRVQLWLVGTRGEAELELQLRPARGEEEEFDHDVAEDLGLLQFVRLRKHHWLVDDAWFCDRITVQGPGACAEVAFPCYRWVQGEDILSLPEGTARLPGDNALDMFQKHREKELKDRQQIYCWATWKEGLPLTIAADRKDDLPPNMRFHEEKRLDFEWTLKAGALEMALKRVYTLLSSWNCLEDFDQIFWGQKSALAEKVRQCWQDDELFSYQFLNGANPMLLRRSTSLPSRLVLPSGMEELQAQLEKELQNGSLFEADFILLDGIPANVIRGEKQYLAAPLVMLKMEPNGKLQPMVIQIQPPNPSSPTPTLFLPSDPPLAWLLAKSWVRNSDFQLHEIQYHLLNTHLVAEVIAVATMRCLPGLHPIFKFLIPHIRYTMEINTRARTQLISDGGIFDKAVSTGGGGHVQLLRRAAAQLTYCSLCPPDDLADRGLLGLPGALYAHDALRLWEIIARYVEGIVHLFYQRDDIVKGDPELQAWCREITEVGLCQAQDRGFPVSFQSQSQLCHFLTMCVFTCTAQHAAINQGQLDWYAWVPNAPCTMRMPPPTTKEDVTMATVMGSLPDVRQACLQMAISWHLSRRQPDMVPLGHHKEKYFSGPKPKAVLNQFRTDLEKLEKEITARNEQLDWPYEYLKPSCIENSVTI

Compound | activity change, negative = inhibition | Potency
CP(=O)(NC(=O)Nc1ccccc1)Oc1ccccc1 (centres undefined) | inactive: -7.02% [at 57.4 µM] | –
CCc1ccc(OP(C)(=O)N2CCN(c3ccc([N+](=O)[O-])cc3)CC2)cc1 (centres undefined) | inactive: -14.4% | –
Cc1cccc(C)c1OP(C)(=O)Nc1ccc(SC(F)(F)F)cc1 (centres undefined) | inactive: 10.3% | –
CP(=O)(Oc1ccccc1)OC(c1ccccc1)C(F)(F)F (centres undefined) | inactive: -0.0579% | –
CP(=O)(Nc1ccccn1)Oc1ccc(Cl)cc1 (centres undefined) | inactive: -4.74% | –
CCOP(C)(=S)SCC(=O)NC(C)C(=O)O (centres undefined) | inactive: 0% | –
CCOC(=O)c1ccc(NP(C)(=O)Oc2ccc(OC)cc2)cc1 (centres undefined) | inactive: -16.5% | –
O=[N+]([O-])c1cc([N+](=O)[O-])c(O)c([N+](=O)[O-])c1.c1ccc(Oc2ccncc2)cc1 | – | active: 31.6 µM
COc1ccccc1OP(C)(=O)Nc1ccccc1 (centres undefined) | inactive: 0.907% | –
CP(=O)(Nc1ccccc1Br)Oc1ccccc1 (centres undefined) | inactive: -6.06% | –
CP(=S)(Nn1cnnc1)Oc1ccccc1 (centres undefined) | inactive: 1.82% | –
CC(C)(C)c1ccc(OP(C)(=O)Nc2ccc(SC(F)(F)F)cc2)cc1 (centres undefined) | inactive: -27.6% | –
Cc1cccc(C)c1OP(C)(N)=O (centres undefined) | inactive: -12.8% | –
O=[N+]([O-])c1ccc2c(c1)C=Nc1ccccc1O2 | inactive: -12.5% | –
COc1ccccc1OP(C)(=O)Nc1cc(Cl)ccc1C (centres undefined) | inactive: -6.57% | –
COc1ccc(OP(C)(=O)Nc2cccc(F)c2)cc1 (centres undefined) | inactive: 0.515% | –
Cc1cc(C)cc(OP(C)(N)=O)c1 (centres undefined) | inactive: -1.17% | –
CCOC(=O)c1ccc(NP(C)(=O)Oc2ccccc2)cc1 (centres undefined) | inactive: 1.61% | –
COc1ccccc1OP(C)(=O)Nc1ccc(C)cc1 (centres undefined) | inactive: -16.3% | –
Cc1ccc(NP(C)(=O)Oc2ccccc2)c(C)c1 (centres undefined) | inactive: 3.41% | –
CCN(CC)CCCOC(=O)C(O)(c1ccccc1)c1ccccc1 | inactive: -21% | –
Cc1cc(C)cc(OP(C)(=O)Nc2ccc(C)cc2C)c1 (centres undefined) | inactive: 2.84% [at 57.4 µM] | –
CCOC(=O)c1ccc(NP(C)(=O)Oc2cc(C)cc(C)c2)cc1 (centres undefined) | inactive: -16.7% | –
COc1ccccc1OP(C)(=O)Nc1cccc(Br)c1 (centres undefined) | inactive: -7.82% | –
Cc1cc(C)cc(OP(C)(=O)Nc2ccccn2)c1 (centres undefined) | inactive: 1.05% | –

Compound | activity change, negative = inhibition | Potency
CP(=O)(Nc1cccc(Br)c1)Oc1ccccc1 (centres undefined) | inactive: -1.14% | –
O=[N+]([O-])c1cccc([N+](=O)[O-])c1 | inactive: -9.59% [at 57.4 µM] | –
CC1=NCCc2c1[nH]c1ccccc21.O=[N+]([O-])c1cc([N+](=O)[O-])c(O)c([N+](=O)[O-])c1 | inactive: 10.6% | –
O=[N+]([O-])c1cc([N+](=O)[O-])c(Nc2nnnn2CCO)c([N+](=O)[O-])c1 | inactive: -29.3% | –
CCCOc1ccc(NP(C)(=O)Oc2ccc(Cl)cc2)cc1 (centres undefined) | inactive: 1.49% | –
CP(=O)(Nc1ccc(SC(F)(F)F)cc1)Oc1ccccc1 (centres undefined) | inactive: -33.9% | –
COc1ccccc1OP(C)(=O)Nc1c(C)cccc1C (centres undefined) | inactive: -0.873% | –
CN1CCCCC1COC(=O)C1(O)c2ccccc2CCc2ccccc21 (centres undefined) | inactive: -3.05% | –
O=[N+]([O-])c1cc([N+](=O)[O-])c(-c2cnn(-c3ccccc3)c2)c([N+](=O)[O-])c1 | inactive: 0% | –
CCOP(=O)(CC)OCC | inactive: 14.3% | –
CCOP(C)(=S)SCC(=O)NC(C)(CC)C(=O)O (centres undefined) | inactive: -15.2% | –
CP(=O)(Nc1ccc(SC(F)(F)F)cc1)Oc1ccc(F)cc1 (centres undefined) | inactive: 0% | –
O=[N+]([O-])c1cc([N+](=O)[O-])c(C(F)(F)F)c([N+](=O)[O-])c1O | inactive: -23.1% | –
Cc1ccccc1NP(C)(=O)Nc1ccccc1C | inactive: 0% | –
CP(=O)(Nc1ccc2c(c1)OCCO2)Oc1ccccc1 (centres undefined) | inactive: 0% | –
COc1ccc(NP(C)(=O)Oc2ccccc2OC)cc1 (centres undefined) | inactive: -2.03% | –
CN(C)CCOC(=O)C(O)(c1ccccc1)C1CCCCC1 (centres undefined) | inactive: 6.65% | –
COc1ccc(OP(C)(=O)Nc2cccc(Br)c2)cc1 (centres undefined) | inactive: 0% | –
Cc1c(C(c2ccc3c(c2)OCO3)c2c(C)n(C)n(-c3ccccc3)c2=O)c(=O)n(-c2ccccc2)n1C.O=[N+]([O-])c1cc([N+](=O)[O-])c(O)c([N+](=O)[O-])c1 | inactive: -0.782% | –
O=[N+]([O-])c1ccc(OP2(=O)COCCO2)cc1 (centres undefined) | inactive: -9.04% | –
COc1ccc(OP(C)(=O)Nc2ccc(SC(F)(F)F)cc2)cc1 (centres undefined) | inactive: -37.7% | –
CCOC(=O)c1ccc(NP(C)(=O)Oc2ccc(F)cc2)cc1 (centres undefined) | inactive: 4.4% | –
Cc1cccc([N+](=O)[O-])c1[N+](=O)[O-] | inactive: -4.92% [at 22.9 µM] | –
CP(=O)(Nc1ccccc1)Oc1ccc(F)cc1 (centres undefined) | inactive: 10.5% | –
CCOP(=O)(CC)Oc1ccc([N+](=O)[O-])cc1 (centres undefined) | inactive: -6.43% [at 22.9 µM] | –

Compound | activity change, negative = inhibition | Potency
CN(C)CCOC(=O)C(O)(c1ccccc1)C1CCCC1 (centres undefined) | inactive: 10.4% | –
COc1ccc(OP(C)(=O)Nc2ccccn2)cc1 (centres undefined) | inactive: 4.68% | –
COc1ccccc1OP(C)(=O)Nc1ccc(Br)cc1 (centres undefined) | inactive: -11.8% | –
CCc1ccc(OP(C)(=O)O)cc1 | inactive: 12.9% | –
CP(=O)(Nc1ccccn1)Oc1ccccc1 (centres undefined) | inactive: -15.1% | –
COc1ccccc1OP(C)(=O)Nc1ccc(C)cc1C (centres undefined) | inactive: -4.2% | –
Cc1c(NP(C)(=O)Oc2ccc(C(C)C)cc2)c(=O)n(-c2ccccc2)n1C (centres undefined) | inactive: 0.884% | –
O=[N+]([O-])c1cc([N+](=O)[O-])c(Nc2ccccn2)c([N+](=O)[O-])c1 | inactive: -14.7% | –
COc1ccc(OP(C)(=O)Nc2ccccc2Br)cc1 (centres undefined) | inactive: 7.18% | –
COc1ccccc1OP(C)(=O)Nc1ccc(C)c(C)c1 (centres undefined) | inactive: 573% | –
Cc1cc(C)cc(OP(C)(=O)Nc2cccc(C(F)(F)F)c2)c1 (centres undefined) | inactive: 0.105% | –
CP(=O)(Nc1ccc(Cl)cc1Cl)Oc1ccccc1 (centres undefined) | inactive: -29.7% | –
CP(=O)(OCCOc1ccccc1)OCCOc1ccccc1 | inactive: 11.3% | –
CP(=O)(OC12CC3CC(CC(C3)C1)C2)OC12CC3CC(CC(C3)C1)C2 | inactive: -1.78% | –
CCOC(=O)c1ccc(NP(C)(=O)Oc2ccc(Cl)cc2)cc1 (centres undefined) | inactive: -19.8% | –
Nc1ccc2c(ccc3cccnc32)n1.O=[N+]([O-])c1cc([N+](=O)[O-])c(O)c([N+](=O)[O-])c1 | inactive: -6.79% | –
CP(=O)(Oc1ccccc1)N1CCOC1=O (centres undefined) | inactive: 13.4% | –
CCc1ccc(OP(C)(=O)Nc2cccnc2)cc1 (centres undefined) | inactive: 12.6% | –
COc1ccccc1OP(C)(=O)Nc1c(C)n(C)n(-c2ccccc2)c1=O (centres undefined) | inactive: 0% | –
O=C(OCCCN1CCCC1)C(O)(c1ccccc1)C1CCCCC1 (centres undefined) | inactive: 104% | –
COc1ccc(OP(C)(=O)Nc2ccc(Br)cc2)cc1 (centres undefined) | inactive: -2.4% | –
CN(C)C(=O)c1c([N+](=O)[O-])cc([N+](=O)[O-])cc1[N+](=O)[O-] | inactive: -10.8% | –
CP(=O)(Nc1ccc(Cl)cc1)Oc1ccc(F)cc1 (centres undefined) | inactive: 17.1% | –
COc1ccccc1OP(C)(=O)Nc1ccccc1Br (centres undefined) | inactive: 24.9% | –

Reference: PubChem BioAssay AID1671190 (National Center for Advancing Translational Sciences (NCATS), 2021)
